# Test system: Ba/F3 engineered cell EGFR-G719S xenograft model
# Settings: equivalent doses, body weight
# Experimental: Statistical analyses were performed using GraphPad Prism 6. […] A value of P < 0.05 was considered statistically significant.
structure (smiles),measurement,value
"CCOc1cc2ncc(C#N)c(Nc3ccc(OCc4ccccn4)c(Cl)c3)c2cc1NC(=O)/C=C/CN(C)C.O=C(O)/C=C\C(=O)O [Compound A009, (E)-N-(4-(3-chloro-4-(pyridin-2-ylmethoxy)anilino)-3-cyano-7-ethoxyquinolin-6-yl)-4-(dimethylamino)but-2-enamide maleate, reference compound]",Tolerability compared with afatinib,overall better tolerability

# From patent publication EP4682143A1, “PHARMACEUTICAL COMPOSITION CONTAINING EGFR INHIBITOR, AND PREPARATION METHOD THEREFOR AND USE THEREOF” (Convalife Pharmaceuticals Co., Ltd., priority 2023, dated 2024)
